In paper PMC7961094 (The Journal of Biological Chemistry, 2021) one finds IC50 data, which are given here for one molecule.

Protein sequences, listed by entry. Tags and fused reporters are not part of them. Residues count along the entry.
UniProt Q9GZT9, 181-426: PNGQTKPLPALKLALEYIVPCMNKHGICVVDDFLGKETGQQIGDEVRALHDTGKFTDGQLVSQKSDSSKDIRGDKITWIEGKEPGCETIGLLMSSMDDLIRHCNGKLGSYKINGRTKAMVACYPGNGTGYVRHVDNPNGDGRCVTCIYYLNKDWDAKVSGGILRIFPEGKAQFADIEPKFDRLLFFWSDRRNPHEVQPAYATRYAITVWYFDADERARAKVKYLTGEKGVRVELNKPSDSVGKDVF

Molecules are shown by their SMILES.

This assay deals with PHD2_181-426 (Homo sapiens, UniProt Q9GZT9). The assay is described as follows: 2,4-DNPH α-KG assay with PHD2. On the procedure:
During the course of the reaction, 50 μl was withdrawn at various time points from the reaction tube and quenched in 50 μl of 10% TCA at predetermined time points and vortexed.
Subsequent measurements were performing at time points conforming to those requirements. Initial velocities at each substrate concentration were fit using linear regression to generate Michaelis–Menten titration curves.
All data were plotted using GraphPad Prism 8.0 and presented as a mean ± standard deviation of three independent biological replicates, unless otherwise stated. For kinetic data, Km was determined by fitting the data to a least squares ordinary fit Michealis–Menten function, while IC50 values were obtained from fitting the data to a three-parameter log(inhibitor) versus response function. Where applicable, two-tailed t tests were performed to determine statistical significance using a p-value of 0.05.

For the molecule `O=C(O)CNC(=O)c1ncc(-c2cccc(Cl)c2)cc1O` [Vadadustat], the concentration for half-maximal inhibition (IC50) stood at 808 nM.
